{"sequences": {"note": "Sequences of proteins named here, by UniProt entry; tags and fusion partners are left off.", "UniProt P47746, whole entry": "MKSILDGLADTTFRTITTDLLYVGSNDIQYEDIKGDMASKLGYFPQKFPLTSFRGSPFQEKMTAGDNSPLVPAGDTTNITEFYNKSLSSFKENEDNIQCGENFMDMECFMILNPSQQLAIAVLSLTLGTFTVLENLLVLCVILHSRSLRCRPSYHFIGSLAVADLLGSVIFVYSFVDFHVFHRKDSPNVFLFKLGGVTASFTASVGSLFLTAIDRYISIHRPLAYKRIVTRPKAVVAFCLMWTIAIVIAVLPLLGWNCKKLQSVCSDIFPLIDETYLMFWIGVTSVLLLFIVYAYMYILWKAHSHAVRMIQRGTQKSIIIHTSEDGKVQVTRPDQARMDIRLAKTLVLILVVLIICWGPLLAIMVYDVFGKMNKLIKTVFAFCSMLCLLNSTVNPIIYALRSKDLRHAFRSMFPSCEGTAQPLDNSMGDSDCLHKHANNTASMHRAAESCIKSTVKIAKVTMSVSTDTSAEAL"}, "source": "patent US20110028517A1", "about": "(LABORATORIOS DEL DR. ESTEVE, S.A., priority 2008, published 2011)", "key": {"[1]": {"target": "T1, CB1 receptors present in the CNS (Mus musculus, UniProt P47746)", "T1 construct": "from tissue; host or cells: live CD1 mouse, central nervous system", "assay": "Reversion of the analgesic effect of CP-55,940 in tail flick test in mice", "format": "in vivo", "conditions": "5 mg/kg intraperitoneal", "experimental": "(§1) Male CD1 mice (Charles River Laboratories), weighting 30 to 40 g (7-8 weeks old) and Male Wistar rats (Charles River Laboratories), weighting 260-300 g (7-8 weeks old) at the time of experiment, were housed in a controlled environment. Temperature was maintained at 22±2° C. on a 12-h light/dark cycle (On at 07:00 h and Off at 19:00 h) and food and water were available ad libitum. The experiments were performed during the light phase. The number of mice ranged from 4 to 15 per group in each individual experiment. Animals were always handled in accordance with ethical principles for the evaluation of pain in conscious animals (Zimmerman, 1983) and with the European Communities Council Directive of 24 November 1986 (86/609/ECC), and received approval by the local Ethical Committee.\n(§2) CP-55,940 (Ref. 0949, Tocris; Wiley et al., 1995) was administrated by subcutaneous route at 0.3 mg/kg in a volume of 5 ml/kg in mice and by intraperitoneal route at 0.5 mg/kg in a volume of 2 ml/kg in rat. NESS-0327 (Ruiu et al., 2003) was administrated by intraperitoneal route at 0.3 mg/kg and 1 mg/kg in a volume of 10 ml/kg in mice. […]\n(§3) The tail flick test was used to evaluate the antinociceptive effect of compounds. […] A noxious beam of light was focused on the mice tail about 4 cm from its tip, and the tail flick latency was recorded automatically to the nearest 0.1 s. […]"}, "[2]": {"target": "T2, CB1 receptors present in the CNS (Rattus norvegicus, UniProt P20272)", "T2 construct": "from tissue; host or cells: live Wistar rat, central nervous system", "assay": "Reversion of the analgesic effect of CP-55,940 in tail flick test in rat", "format": "in vivo", "conditions": "10 mg/kg oral", "experimental": "as §1, §2, §3"}}}
{"smiles": "Cc1c(C(=O)NN2CCCCC2)nn(-c2ccc(Cl)cc2Cl)c1-c1ccc(Cl)cc1", "note": "[Rimonabant, N-(piperidin-1-yl)-5-(4-chlorophenyl)-1-(2,4-dichlorophenyl)-4-methyl-1H-pyrazole-3-carboxamide, reference compound]", "values": [{"measurement": "reversion of the analgesic effect of CP-55,940", "setting": "[1]; CP-55,940 0.3 mg/kg subcutaneous, FIG. 6", "result": "significantly reverted"}, {"measurement": "effect by itself in tail flick test", "setting": "[1]; without CP-55,940", "result": "Neither Rimonabant (5 mg/kg) nor the (4S,5S)-5-(4-chlorophenyl)-1-(2,4-dichlorophenyl)-N-(cis-2,6-dimethylpiperidin-1-yl)-4-methyl-4,5-dihydro-1H-pyrazole-3-carboxamide enantiomer (5 mg/kg) showed an effect by themselves"}, {"measurement": "reversion of the analgesic effect of CP-55,940", "setting": "[2]; CP-55,940 0.5 mg/kg intraperitoneal, FIG. 7", "result": "significantly reverted"}, {"measurement": "effect by itself in tail flick test", "setting": "[2]; without CP-55,940", "result": "Neither Rimonabant (10 mg/kg) nor the ((4S,5S)-5-(4-chlorophenyl)-1-(2,4-dichlorophenyl)-N-(cis-2,6-dimethylpiperidin-1-yl)-4-methyl-4,5-dihydro-1H-pyrazole-3-carboxamide enantiomer (10 mg/kg) showed an effect by themselves"}]}
